Measurements as given in patent US8173696B2, “Inhibitors of cysteine proteases and methods of use thereof” (Baylor University, priority 2007, dated 2012).

By UniProt entry, the sequences of proteins in these tests, tags left out. Residues count along the entry.
UniProt P25779, 123-467: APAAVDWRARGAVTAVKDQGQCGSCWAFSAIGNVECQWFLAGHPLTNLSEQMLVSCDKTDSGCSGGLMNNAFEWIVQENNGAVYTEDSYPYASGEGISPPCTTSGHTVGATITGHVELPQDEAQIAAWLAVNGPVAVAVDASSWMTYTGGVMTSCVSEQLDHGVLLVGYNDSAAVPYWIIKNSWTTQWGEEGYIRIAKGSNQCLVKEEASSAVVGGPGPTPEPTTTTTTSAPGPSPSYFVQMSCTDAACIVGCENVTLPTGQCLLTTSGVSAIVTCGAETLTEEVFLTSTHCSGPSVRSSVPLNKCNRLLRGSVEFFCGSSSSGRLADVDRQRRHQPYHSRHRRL

Biological target: Cruzain (Trypanosoma cruzi, UniProt P25779)
Experiment: biochemical
Conditions: Table B; unit inferred
Procedure: Cruzain (0.1 nM) in 100 mM sodium acetate buffer (pH 5.50) containing 5 mM DTT was preincubated for 5 min at 25° C. with inhibitor.

## CC/C(=N\NC(N)=S)c1cccc(Br)c1 [Compound 5, 3-Bromopropiophenone thiosemicarbazone]
  IC50: 240 nM
